# Earlier results in patent publication US20110112037A1, “CRYSTAL STRUCTURE” (Heptares Therapeutics Limited BioPark, priority 2008, published 2011).
# Chains of the proteins cited; added tags and fusions are not shown.
# UniProt P07700, whole entry R68S/M90V/Y227A/A282L/F327A/F338M, looked up: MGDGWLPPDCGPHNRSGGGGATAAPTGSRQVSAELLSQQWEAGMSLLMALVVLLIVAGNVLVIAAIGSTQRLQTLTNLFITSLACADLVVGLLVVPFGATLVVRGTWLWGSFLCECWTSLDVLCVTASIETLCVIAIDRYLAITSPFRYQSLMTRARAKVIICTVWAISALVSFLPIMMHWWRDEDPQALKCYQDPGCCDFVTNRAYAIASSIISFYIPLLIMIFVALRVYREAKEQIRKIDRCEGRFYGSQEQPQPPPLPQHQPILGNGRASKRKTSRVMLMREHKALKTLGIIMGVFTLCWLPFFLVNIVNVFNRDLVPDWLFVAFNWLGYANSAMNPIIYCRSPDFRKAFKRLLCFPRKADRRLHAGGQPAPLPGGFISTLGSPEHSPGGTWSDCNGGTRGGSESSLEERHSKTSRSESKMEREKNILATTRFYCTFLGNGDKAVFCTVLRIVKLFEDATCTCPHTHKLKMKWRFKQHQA
# Biological target: β1-m23 (Meleagris gallopavo, UniProt P07700, A282L/F327A/F338M/M90V/R68S/Y227A)
# Settings: β1-m23 versus wild-type receptor; cited from earlier work
smiles,measurement,value
NC[C@H](O)c1ccc(O)c(O)c1,factor by which agonist bound more weakly to β1-m23 than to wild-type receptor,2470
